Patent publication US20210008075A1, “PEDIATRIC DOSING FOR TREATMENT OF CANCER WITH AN EZH2 INHIBITOR” (Epizyme, Inc., priority 2015, published 2021)

How the values were obtained:
[1] = system: EZH2; type: biochemical
[2] = system: Medulloblastoma cells; test: Medulloblastoma cell growth, total cells per milliliter counted; type: cell-based; conditions: versus GSK-126 and UNC 1999

CCN(c1cc(-c2ccc(CN3CCOCC3)cc2)cc(C(=O)NCc2c(C)cc(C)[nH]c2=O)c1C)C1CCOCC1 [tazemetostat]
targeting of WT and mutant EZH2 [1]: potent in targeting both WT and mutant EZH2 | effect on medulloblastoma cell growth compared with other small molecule EZH2 inhibitors [2]: superior ability to decrease medulloblastoma cell growth; also recorded: greatest effect on medulloblastoma cell growth

Entries after “also recorded” stand apart in the source; their conditions may differ.
